Earlier results on one molecule are cited in US8980904B2, “Heterocyclic substituted pyrimidine compound” (Xuanzhu Pharma Co., Ltd., priority 2011, dated 2015).

The chains behind the UniProt entries cited, without tags or fusion partners. Where a name states a change or a piece, a line headed by the entry shows the natural chain unless it says otherwise.
UniProt Q9HCR9: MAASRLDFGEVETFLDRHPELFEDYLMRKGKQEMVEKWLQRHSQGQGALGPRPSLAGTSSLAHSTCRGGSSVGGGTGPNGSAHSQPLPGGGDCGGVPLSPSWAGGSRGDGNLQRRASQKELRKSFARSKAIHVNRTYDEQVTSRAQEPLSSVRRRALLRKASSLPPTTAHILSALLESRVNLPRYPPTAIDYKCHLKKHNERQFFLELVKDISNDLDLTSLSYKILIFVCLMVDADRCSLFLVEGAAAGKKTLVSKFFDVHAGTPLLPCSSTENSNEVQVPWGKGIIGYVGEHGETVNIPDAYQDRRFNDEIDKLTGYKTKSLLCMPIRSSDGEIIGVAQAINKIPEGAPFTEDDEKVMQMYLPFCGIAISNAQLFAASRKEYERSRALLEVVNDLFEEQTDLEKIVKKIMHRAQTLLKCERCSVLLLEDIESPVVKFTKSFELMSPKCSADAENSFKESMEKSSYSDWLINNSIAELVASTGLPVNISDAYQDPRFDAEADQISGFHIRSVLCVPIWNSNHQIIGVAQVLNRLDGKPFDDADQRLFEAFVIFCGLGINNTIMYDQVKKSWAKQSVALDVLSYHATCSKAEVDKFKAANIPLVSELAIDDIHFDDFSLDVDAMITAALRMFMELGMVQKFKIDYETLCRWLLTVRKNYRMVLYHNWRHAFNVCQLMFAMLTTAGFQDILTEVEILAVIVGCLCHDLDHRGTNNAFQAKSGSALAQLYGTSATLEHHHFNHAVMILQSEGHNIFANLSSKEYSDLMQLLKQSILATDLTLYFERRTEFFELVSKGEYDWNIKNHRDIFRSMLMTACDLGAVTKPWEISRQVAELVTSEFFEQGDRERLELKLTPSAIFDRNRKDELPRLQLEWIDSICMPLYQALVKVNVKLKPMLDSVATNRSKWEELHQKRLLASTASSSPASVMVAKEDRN

In the data set the target is PDE-11 (Homo sapiens (Human), UniProt Q9HCR9). The conditions noted are these: background art; cited from earlier work.

For `CN1CC(=O)N2[C@H](c3ccc4c(c3)OCO4)c3[nH]c4ccccc4c3C[C@@H]2C1=O` [Tadalafil], the “inhibition of PDE-11” value was “inhibition effects on PDE-11 to some extent”.
